Measured values taken from patent publication US20210060030A1, “METHOD FOR TREATING CANCER” (Epizyme, Inc., priority 2014, published 2021).
Where two headings read alike, the source gives them in different places.

How the values were obtained:
[1] = human, in vivo
Experimental: Blood samples for PK and skin biopsies for PD analysis were collected. PD samples were stained with H3K27me3 specific antibody and percent change from baseline in H3K27Me3 positive cells was determined. PK/PD relationship was analyzed. Tumor assessments were performed every 8 weeks.
Doses administered were 100 mg BID as a suspension (n=3) or tablet (n=3) formulation and 200, 400, 800 and 1600 mg as tablet formulation.

[2] = tested on: mutant EZH2 or WT EZH2 germinal center lymphoma cell lines; assay: Combination with drugs that target the BCR/PI3K pathways in germinal center lymphoma cell lines; format: cell-based; details: cell lines harboring mutant EZH2 or WT EZH2 germinal center lymphoma cell lines
[3] = tested on: EZH2 mutant lymphoma cells; assay: Killing of EZH2 mutant lymphoma cells; format: cell-based

CCN(c1cc(-c2ccc(CN3CCOCC3)cc2)cc(C(=O)NCc2c(C)cc(C)[nH]c2=O)c1C)C1CCOCC1 [EPZ-6438]
accumulation ratio (R=AUCD15/AUCD1) ([1]; 100 mg): approximately 74% | accumulation ratio (R=AUCD15/AUCD1) ([1]; 1600 mg): ~44% | effect of combination with drugs that target the BCR/PI3K pathways [2]: either additive or synergistic effects | effect on EZH2 mutant lymphoma cells [3]: killing
